Results published in PubChem BioAssay (NCI).
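Dose response: 5 concentrations. Exposure: 48 h. Format: 96-well plates. Endpoint: linear interpolation; highest concentration if not reached. GI50 = concentration required for 50% inhibition of growth. TGI: concentration producing complete growth inhibition.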

Key:
Test in all cases: growth of human tumour cells (NCI), 48 h
SF-295 CNS = test system: SF-295 CNS
SK-MEL-28 melanoma = test system: SK-MEL-28 melanoma
MDA-N = test system: MDA-N
CAKI-1 renal = test system: CAKI-1 renal
EKVX NSCLC = test system: EKVX NSCLC
OVCAR-5 ovarian = test system: OVCAR-5 ovarian
IGROV1 ovarian = test system: IGROV1 ovarian
M14 melanoma = test system: M14 melanoma
SK-OV-3 ovarian = test system: SK-OV-3 ovarian
HS 578T breast = test system: HS 578T breast
A498 renal = test system: A498 renal
NCI/ADR-RES ovarian = test system: NCI/ADR-RES ovarian
HCT-116 colon = test system: HCT-116 colon
LOX IMVI melanoma = test system: LOX IMVI melanoma
MDA-MB-231 breast = test system: MDA-MB-231 breast
SF-268 CNS = test system: SF-268 CNS
HCT-15 colon = test system: HCT-15 colon
OVCAR-4 ovarian = test system: OVCAR-4 ovarian
SF-539 CNS = test system: SF-539 CNS
OVCAR-8 ovarian = test system: OVCAR-8 ovarian
SK-MEL-5 melanoma = test system: SK-MEL-5 melanoma
BT-549 breast = test system: BT-549 breast
SN12C renal = test system: SN12C renal
KM12 colon = test system: KM12 colon
T-47D breast = test system: T-47D breast
MALME-3M melanoma = test system: MALME-3M melanoma
NCI-H23 lung = test system: NCI-H23 lung
UO-31 renal = test system: UO-31 renal

`C(Cc1nn[nH]n1)c1nn[nH]n1` was tested, and the GI50 (SF-295 CNS) was greater than 100 µM, the TGI (SF-295 CNS) was greater than 100 µM and the GI50 (SK-MEL-28 melanoma) was greater than 100 µM. It also gave a TGI (SK-MEL-28 melanoma) greater than 100 µM, a GI50 (MDA-N) greater than 100 µM and a TGI (MDA-N) greater than 100 µM. The GI50 (CAKI-1 renal) was greater than 100 µM, the TGI (CAKI-1 renal) was greater than 100 µM and the GI50 (EKVX NSCLC) was greater than 100 µM. It also gave a TGI (EKVX NSCLC) greater than 100 µM, a GI50 (OVCAR-5 ovarian) greater than 100 µM and a TGI (OVCAR-5 ovarian) greater than 100 µM. The GI50 (IGROV1 ovarian) was greater than 100 µM, the TGI (IGROV1 ovarian) was greater than 100 µM and the GI50 (M14 melanoma) was greater than 100 µM. For the same molecule, the TGI (M14 melanoma) was greater than 100 µM, the GI50 (SK-OV-3 ovarian) was greater than 100 µM and the TGI (SK-OV-3 ovarian) was greater than 100 µM. The GI50 (HS 578T breast) was greater than 100 µM, the TGI (HS 578T breast) was greater than 100 µM and the GI50 (A498 renal) was greater than 100 µM. For the same molecule, the TGI (A498 renal) was greater than 100 µM, the GI50 (NCI/ADR-RES ovarian) was greater than 100 µM and the TGI (NCI/ADR-RES ovarian) was greater than 100 µM. The GI50 (HCT-116 colon) was greater than 100 µM, the TGI (HCT-116 colon) was greater than 100 µM and the GI50 (LOX IMVI melanoma) was greater than 100 µM. It also gave a TGI (LOX IMVI melanoma) greater than 100 µM, a GI50 (MDA-MB-231 breast) greater than 100 µM and a TGI (MDA-MB-231 breast) greater than 100 µM. The GI50 (SF-268 CNS) was greater than 100 µM, the TGI (SF-268 CNS) was greater than 100 µM and the GI50 (HCT-15 colon) was greater than 100 µM. It also gave a TGI (HCT-15 colon) greater than 100 µM, a GI50 (OVCAR-4 ovarian) greater than 100 µM and a TGI (OVCAR-4 ovarian) greater than 100 µM. It also gave a GI50 (SF-539 CNS) greater than 100 µM, a TGI (SF-539 CNS) greater than 100 µM and a GI50 (OVCAR-8 ovarian) greater than 100 µM. For the same molecule, the TGI (OVCAR-8 ovarian) was greater than 100 µM, the GI50 (SK-MEL-5 melanoma) was greater than 100 µM and the TGI (SK-MEL-5 melanoma) was greater than 100 µM. For the same molecule, the GI50 (BT-549 breast) was greater than 100 µM, the TGI (BT-549 breast) was greater than 100 µM and the GI50 (SN12C renal) was greater than 100 µM. The TGI (SN12C renal) was greater than 100 µM, the GI50 (KM12 colon) was greater than 100 µM and the TGI (KM12 colon) was greater than 100 µM. For the same molecule, the GI50 (T-47D breast) was greater than 100 µM, the TGI (T-47D breast) was greater than 100 µM and the GI50 (MALME-3M melanoma) was greater than 100 µM. For the same molecule, the TGI (MALME-3M melanoma) was greater than 100 µM, the GI50 (NCI-H23 lung) was greater than 100 µM and the TGI (NCI-H23 lung) was greater than 100 µM. It also gave a GI50 (UO-31 renal) greater than 100 µM.
